Data from ChEMBL document CHEMBL3638462, “Pyridine and pyrimidine derivatives as phosphodiesterase 10 inhibitors” (2014).

The chains behind the UniProt entries cited, without tags or fusion partners. Where a name states a change or a piece, a line headed by the entry shows the natural chain unless it says otherwise.
UniProt Q9Y233: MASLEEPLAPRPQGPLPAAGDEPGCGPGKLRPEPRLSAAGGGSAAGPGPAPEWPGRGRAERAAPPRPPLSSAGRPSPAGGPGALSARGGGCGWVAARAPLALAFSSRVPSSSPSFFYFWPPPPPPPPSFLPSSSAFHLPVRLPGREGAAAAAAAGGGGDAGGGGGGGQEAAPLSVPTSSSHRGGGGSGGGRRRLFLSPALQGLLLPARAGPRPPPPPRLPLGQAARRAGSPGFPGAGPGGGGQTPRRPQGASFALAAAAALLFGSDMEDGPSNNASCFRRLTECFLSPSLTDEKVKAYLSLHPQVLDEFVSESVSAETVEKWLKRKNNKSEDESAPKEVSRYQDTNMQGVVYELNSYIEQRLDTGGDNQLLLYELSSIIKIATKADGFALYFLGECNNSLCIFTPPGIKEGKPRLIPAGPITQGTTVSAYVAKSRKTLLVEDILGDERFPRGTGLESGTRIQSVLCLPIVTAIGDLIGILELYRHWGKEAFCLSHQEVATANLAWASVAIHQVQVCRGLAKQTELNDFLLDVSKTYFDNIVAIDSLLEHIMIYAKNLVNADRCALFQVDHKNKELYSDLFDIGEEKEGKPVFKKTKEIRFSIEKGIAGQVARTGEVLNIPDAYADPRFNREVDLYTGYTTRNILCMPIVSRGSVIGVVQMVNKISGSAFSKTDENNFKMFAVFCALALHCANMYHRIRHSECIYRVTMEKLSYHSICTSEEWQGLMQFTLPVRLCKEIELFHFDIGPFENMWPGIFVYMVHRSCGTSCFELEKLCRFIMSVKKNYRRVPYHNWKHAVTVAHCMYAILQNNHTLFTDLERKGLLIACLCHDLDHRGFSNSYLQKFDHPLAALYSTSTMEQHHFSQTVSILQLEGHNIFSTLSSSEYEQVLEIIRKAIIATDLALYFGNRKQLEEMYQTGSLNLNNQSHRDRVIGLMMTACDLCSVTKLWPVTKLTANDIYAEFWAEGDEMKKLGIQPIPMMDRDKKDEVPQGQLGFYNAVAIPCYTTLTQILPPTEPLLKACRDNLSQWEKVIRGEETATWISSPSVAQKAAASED

Target: cAMP and cAMP-inhibited cGMP 3',5'-cyclic phosphodiesterase 10A (Homo sapiens, UniProt Q9Y233)
Assay: Enzyme Inhibition Assay: To check the inhibition profile, 5 μL of serial diluted compounds were incubated with 5 μL of diluted PDE10 enzyme (BPS Bioscience, San Diego, Calif.) or tissue homogenate in a 384-well polystyrene assay plate (Corning, Corning, N.Y.) for 30 min at room temperature. After incubation, 10 μL of diluted fluorescein labeled cAMP or cGMP substrate were added and incubated for 60 min at room temperature. The reaction was stopped by adding 60 μL of diluted binding reagents and plates were read on an Envision (Perkin Elmer, Waltham, Mass.) for time resolved fluorescence resonance energy transfer. The data were analyzed with GraphPad Prism (La Jolla, Calif.).

Row | Structure (SMILES) | IC50
1 | O=C(c1ccc(Oc2ncccc2C(=O)NCCBr)cc1)c1nc2ccccc2[nH]1 | 27.4 nM
2 | CC(=O)N1CCC[C@H](c2cccnc2Oc2ccc(C(=O)c3nc4ccccc4[nH]3)cc2)C1 | 0.0503 nM
